Changes are numbered by the printed parent chain.
B1: Y150-F8-9 (bispecific antibody, human IgG1, kappa)
scFv: QVQLVESGGGVVQPGRSLRLSCAASGFTFSTYAMNWVRQAPGKGLEWVARIRSKYNNYATYYADSVKDRFTISRDDSKNTLYLQMNSLRAEDTAVYYCARHGNFGNSYVSWFAYWGQGTLVTVSSGGGGSGGGGSGGGGSQTVVTQEPSLTVSPGGTVTLTCRSSTGAVTTSNYANWVQQKPGQAPRGLIGGTNKRAPGVPARFSGSLLGGKAALTLSGVQPEDEAEYYCALWYSNLWVFGGGTKVEIKGRGRGSDKTHTCPPSPAPPVAGPSVFLFPPKPKDTLMISRTPEVTCVVVDVSHEDPEVQFNWYVDGVEVHNAKTKPREEQFNSTFRVVSVLTVVHQDWLNGKEYKCKVSNKGLPAPIEKTISKTKGQPREPQVCTLPPSRDELTKNQVSLSCAVKGFYPSDIAVEWESNGQPENNYKTTPPVLDSDGSFFLVSKLTVDKSRWQQGNVFSCSVMHEALHNHYTQKSLSLSPGK
heavy: not shown
light: not shown
B2: Y150-F8-10 (bispecific antibody, human IgG1, kappa)
scFv: B1 scFv with F112A, V178F, S264C, D304A
heavy: not shown
light: not shown
B3: Y150-F8-12 (bispecific antibody, human IgG1, kappa)
scFv: B1 scFv with A113V, G188A
heavy: not shown
light: not shown
B4: Y150-F8-14 (bispecific antibody, human IgG1, kappa)
scFv: B1 scFv with A113L, G188A
heavy: not shown
light: not shown

Experiments:
Human CD38 = target: T1, Human CD38 (human, UniProt P28907 1-300); assay: flow cytometry on CD38 positive tumor cells (MM.1S or RPMI 8226)
T1 construct: whole, on cells; the assays used the protein on tumor cells

human CD3 [1] = target: T2, human CD3 (human, UniProt P07766 23-207); assay: cell-based or functional assay
monkey CD3 = target: T3, monkey CD3 (monkey); assay: flow cytometry on monkey CD3 positive T cells
T3 construct: whole, on cells; also called CD3 on monkey CD3 positive T cells

human CD3 [2] = target: T2, human CD3; assay: flow cytometry on human CD3 positive T cells

Row | Binder | EC50 (Human CD38) [nM] | EC50 values of T-cell activation (CD3 and CD69 dual positive cells; human PBMC with MC/CAR target cells 5:1, 48 h) (human CD3 [1]) [nM] | EC50 (monkey CD3) [nM] | EC50 (human CD3 [2]) [nM]
1 | B1 | 51.9 | 0.00096 | – | –
2 | B2 | 42.7 | 0.0141 | 440 | 416
3 | B3 | 47.9 | ≥ 6.53 | 607 | 561
4 | B4 | 49.9 | – | 598 | 565
